How the values were obtained:
Assay in all cases: Enzyme Assay
[1] = molecular target: PIK3CA (human) (UniProt P42336)
[2] = molecular target: PIK3CD (Human) (UniProt O00329)
[3] = molecular target: PIK3CB (Human) (UniProt P42338)

Amino acid sequences for entries named in this document (tags omitted). A change or cut given only in a name is not applied to a line headed by its entry.
UniProt P42336, whole entry, looked up: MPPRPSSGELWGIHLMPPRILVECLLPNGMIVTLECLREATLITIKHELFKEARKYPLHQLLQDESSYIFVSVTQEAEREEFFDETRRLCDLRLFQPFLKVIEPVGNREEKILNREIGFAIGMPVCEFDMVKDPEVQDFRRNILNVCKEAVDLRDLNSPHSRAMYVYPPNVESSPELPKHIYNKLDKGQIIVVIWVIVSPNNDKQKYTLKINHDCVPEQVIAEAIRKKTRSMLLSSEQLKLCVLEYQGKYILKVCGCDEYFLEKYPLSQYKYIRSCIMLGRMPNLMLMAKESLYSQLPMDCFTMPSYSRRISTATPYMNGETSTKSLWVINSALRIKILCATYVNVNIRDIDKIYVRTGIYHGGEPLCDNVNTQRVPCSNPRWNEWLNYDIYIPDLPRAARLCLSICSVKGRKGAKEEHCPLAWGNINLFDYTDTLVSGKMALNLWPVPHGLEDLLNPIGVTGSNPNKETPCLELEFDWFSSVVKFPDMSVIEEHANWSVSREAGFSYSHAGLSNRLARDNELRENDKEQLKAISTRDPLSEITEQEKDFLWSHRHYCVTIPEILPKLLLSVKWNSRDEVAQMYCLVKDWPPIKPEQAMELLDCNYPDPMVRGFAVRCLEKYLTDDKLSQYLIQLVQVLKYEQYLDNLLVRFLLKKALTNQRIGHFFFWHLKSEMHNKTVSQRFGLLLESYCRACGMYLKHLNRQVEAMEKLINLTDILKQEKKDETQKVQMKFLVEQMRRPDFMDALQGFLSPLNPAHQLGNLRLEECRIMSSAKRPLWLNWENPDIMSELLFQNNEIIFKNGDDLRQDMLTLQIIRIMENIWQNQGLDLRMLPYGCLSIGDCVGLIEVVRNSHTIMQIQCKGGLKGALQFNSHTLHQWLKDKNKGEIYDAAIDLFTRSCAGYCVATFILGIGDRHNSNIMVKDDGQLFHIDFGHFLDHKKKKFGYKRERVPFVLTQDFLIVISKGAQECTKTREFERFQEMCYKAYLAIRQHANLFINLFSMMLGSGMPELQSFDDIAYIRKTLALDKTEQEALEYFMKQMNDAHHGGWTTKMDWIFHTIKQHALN
UniProt O00329: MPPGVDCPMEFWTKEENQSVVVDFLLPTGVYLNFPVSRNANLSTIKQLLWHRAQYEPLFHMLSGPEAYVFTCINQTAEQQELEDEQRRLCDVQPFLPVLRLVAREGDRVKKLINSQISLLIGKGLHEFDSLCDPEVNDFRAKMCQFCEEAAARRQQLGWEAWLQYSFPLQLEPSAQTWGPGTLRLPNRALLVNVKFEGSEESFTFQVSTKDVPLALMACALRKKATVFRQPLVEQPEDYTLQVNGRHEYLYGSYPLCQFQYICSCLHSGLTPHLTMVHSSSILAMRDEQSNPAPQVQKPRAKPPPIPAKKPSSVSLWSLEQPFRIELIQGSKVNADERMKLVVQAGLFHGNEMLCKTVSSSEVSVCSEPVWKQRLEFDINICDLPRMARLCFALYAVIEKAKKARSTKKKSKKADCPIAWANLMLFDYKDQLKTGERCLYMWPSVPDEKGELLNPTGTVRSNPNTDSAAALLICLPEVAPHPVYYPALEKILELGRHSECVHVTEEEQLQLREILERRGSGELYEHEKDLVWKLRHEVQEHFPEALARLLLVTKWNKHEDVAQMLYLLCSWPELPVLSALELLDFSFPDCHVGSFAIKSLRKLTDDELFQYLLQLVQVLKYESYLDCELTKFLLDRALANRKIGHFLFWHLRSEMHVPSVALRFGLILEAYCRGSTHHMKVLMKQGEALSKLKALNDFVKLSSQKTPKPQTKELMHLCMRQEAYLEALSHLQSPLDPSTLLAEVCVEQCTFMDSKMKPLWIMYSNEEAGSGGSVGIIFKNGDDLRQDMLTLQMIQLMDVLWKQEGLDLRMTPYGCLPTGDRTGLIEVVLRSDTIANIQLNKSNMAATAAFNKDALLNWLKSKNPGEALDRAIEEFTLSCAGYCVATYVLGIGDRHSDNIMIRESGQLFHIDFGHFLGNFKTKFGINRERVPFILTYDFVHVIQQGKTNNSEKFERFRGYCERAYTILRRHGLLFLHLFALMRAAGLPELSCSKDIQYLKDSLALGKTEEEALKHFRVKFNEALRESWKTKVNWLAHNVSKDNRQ
UniProt P42338: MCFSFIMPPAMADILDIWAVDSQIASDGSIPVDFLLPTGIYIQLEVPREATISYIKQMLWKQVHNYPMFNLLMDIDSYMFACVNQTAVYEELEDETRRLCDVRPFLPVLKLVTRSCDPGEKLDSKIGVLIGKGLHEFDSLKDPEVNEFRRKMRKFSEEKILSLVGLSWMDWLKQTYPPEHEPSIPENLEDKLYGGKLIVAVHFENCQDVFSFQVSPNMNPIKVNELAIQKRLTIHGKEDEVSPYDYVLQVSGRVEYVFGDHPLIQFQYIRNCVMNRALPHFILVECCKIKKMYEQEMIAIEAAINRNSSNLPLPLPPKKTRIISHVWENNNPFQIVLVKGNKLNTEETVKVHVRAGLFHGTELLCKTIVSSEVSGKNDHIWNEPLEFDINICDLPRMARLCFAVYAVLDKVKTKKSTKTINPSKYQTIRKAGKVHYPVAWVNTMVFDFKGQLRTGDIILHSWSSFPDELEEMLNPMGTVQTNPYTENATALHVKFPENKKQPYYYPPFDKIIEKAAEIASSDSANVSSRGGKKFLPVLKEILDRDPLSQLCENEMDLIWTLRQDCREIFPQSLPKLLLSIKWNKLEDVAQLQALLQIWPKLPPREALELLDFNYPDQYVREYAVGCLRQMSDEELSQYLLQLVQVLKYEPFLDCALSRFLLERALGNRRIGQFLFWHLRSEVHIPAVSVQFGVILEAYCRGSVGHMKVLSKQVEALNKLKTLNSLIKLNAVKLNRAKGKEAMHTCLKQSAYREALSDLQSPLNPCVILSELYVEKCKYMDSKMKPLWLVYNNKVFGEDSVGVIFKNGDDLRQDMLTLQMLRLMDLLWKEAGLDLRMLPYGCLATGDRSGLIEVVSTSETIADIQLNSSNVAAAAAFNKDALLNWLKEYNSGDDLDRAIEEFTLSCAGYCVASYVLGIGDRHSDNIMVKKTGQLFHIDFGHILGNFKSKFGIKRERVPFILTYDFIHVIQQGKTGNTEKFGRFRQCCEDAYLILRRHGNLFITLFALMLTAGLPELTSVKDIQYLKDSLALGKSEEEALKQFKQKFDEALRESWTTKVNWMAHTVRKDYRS

| IC50 [1] | IC50 [2] | IC50 [3] | SMILES |
| --- | --- | --- | --- |
| 100 to 1000 nM | < 100 nM |  | CC(=O)Nc1nc2ccc(-c3nn(Cc4cc5cccc(C)c5c(=O)n4-c4ccccc4C)c4ncnc(N)c34)cc2s1 |
|  |  | 100 to 1000 nM | Cc1ccccc1-n1c(Cn2nc(-c3cc(O)cc(F)c3)c3c(N)ncnc32)cc2cccc(C)c2c1=O |
